From patent publication US6534629B1, “Nematode-extracted serine protease inhibitors and anticoagulant proteins” (priority 1994, dated 2003)

System: normal citrated human plasma
Experiment: Activated partial thromboplastin time (aPTT) assay
Type: biochemical
Details: concentration that doubled the control clotting time (28.5 seconds) of normal human plasma
Experimental: The ex vivo anticoagulant effects of NAPs of the present invention in human plasma were evaluated by measuring the prolongation of the activated partial thromboplastin time (aPTT) and prothrombin time (PT) over a broad concentration range of each inhibitor.
Fresh frozen pooled normal citrated human plasma was obtained from George King Biomedical, Overland Park, Kans. Respective measurements of aPTT and PT were made using the Coag-A-Mate RA4 automated coagulometer (General Diagnostics, Organon Technica, Oklahoma City, Okla.) using the Automated aPTT Platelin® reagent (Organon Technica, Durham, N.C.) and Simplastin® Excel (Organon Technica, Durham, N.C.) respectively, as initiators of clotting according to the manufacturer's instructions.
The assays were conducted by making a series of dilutions of each tested NAP in rapidly thawed plasma followed by adding 200 microliters or 100 microliters of the above referenced reagents to the wells of the assay carousel for the aPTT or PT measurements, respectively. […]
Concentrations of NAP were plotted against clotting time, and a doubling time concentration was calculated, i.e., a specified concentration of NAP that doubled the control clotting time of either the PT or the aPTT. […]

B1: AcaNAPc2: NAP of Ancylostoma caninum isolated by phage display, SEQ. ID. NO. 59; fVIIa/TF inhibitor (protein)
chain: KATMQCGENEKYDSCGSKECDKKCKYDGVEEEDDEEPNVPCLVRVCHQDCVCEEGFYRNKDDKCVSAEDCELDNMDFIYPGTRN
Doubling Concentration (nM) in the aPTT: 105 ± 11 nM
